Assay results as given in paper PMC4408927 (Nature, 2015).

Chains of the proteins cited; added tags and fusions are not shown. Lines headed by an entry give the natural chain unless they say otherwise; changes in a name come on top.
UniProt P47900, whole entry Y303F: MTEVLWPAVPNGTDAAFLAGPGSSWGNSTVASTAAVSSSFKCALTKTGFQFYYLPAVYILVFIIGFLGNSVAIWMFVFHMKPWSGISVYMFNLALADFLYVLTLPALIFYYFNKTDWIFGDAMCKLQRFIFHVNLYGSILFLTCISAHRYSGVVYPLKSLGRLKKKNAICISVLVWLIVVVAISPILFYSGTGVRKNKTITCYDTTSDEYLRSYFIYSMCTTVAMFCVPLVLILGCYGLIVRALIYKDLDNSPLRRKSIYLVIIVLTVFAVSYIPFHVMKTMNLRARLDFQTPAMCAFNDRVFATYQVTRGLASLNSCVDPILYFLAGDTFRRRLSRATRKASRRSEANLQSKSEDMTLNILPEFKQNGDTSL
UniProt P47900, whole entry A106W: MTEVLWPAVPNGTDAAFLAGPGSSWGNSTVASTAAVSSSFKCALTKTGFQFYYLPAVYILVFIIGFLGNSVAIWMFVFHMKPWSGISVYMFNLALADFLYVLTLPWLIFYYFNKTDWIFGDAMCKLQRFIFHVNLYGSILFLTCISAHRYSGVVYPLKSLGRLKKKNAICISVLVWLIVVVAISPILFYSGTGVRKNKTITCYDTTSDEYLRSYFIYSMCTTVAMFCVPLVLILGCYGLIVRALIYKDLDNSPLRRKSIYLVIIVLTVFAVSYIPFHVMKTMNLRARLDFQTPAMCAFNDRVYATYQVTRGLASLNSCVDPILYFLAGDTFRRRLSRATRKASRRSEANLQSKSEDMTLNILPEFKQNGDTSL

Tests used:
human P2Y1R Construct 1 = human P2Y1R Construct 1 (Homo sapiens, UniProt P47900, D320N/INS247MKKYTCTVCGYIYNPEDG/INS251GVNPGTDFKDIPDDWVCPLCGVGKDQFEEVE/L249P/S252E); assay: Saturation binding of [3H]2MeSADP, Sf9 membranes
[1] = biological target: human P2Y1R Construct 1+Y306^7.35F mutation (Homo sapiens, UniProt P47900, D320N/INS247MKKYTCTVCGYIYNPEDG/INS251GVNPGTDFKDIPDDWVCPLCGVGKDQFEEVE/L249P/S252E/Y306F); assay: biochemical
[2] = biological target: human P2Y1R Construct 2+A106^2.59L mutation (Homo sapiens, UniProt P47900, A106L/D320N/INS247MKKYTCTVCGYIYNPEDG/INS251GVNPGTDFKDIPDDWVCPLCGVGKDQFEEVE/L249P/S252E); assay: biochemical
[3] = biological target: human P2Y1R WT+Y303^7.32F mutation (Homo sapiens, UniProt P47900, Y303F); assay: Saturation binding of [3H]2MeSADP, COS-7 membranes
[4] = biological target: human P2Y1R Construct 1+K46A mutation (Homo sapiens, UniProt P47900, D320N/INS247MKKYTCTVCGYIYNPEDG/INS251GVNPGTDFKDIPDDWVCPLCGVGKDQFEEVE/K46A/L249P/S252E); assay: biochemical
human P2Y1R WT [5] = biological target: T1, human P2Y1R WT (Homo sapiens, UniProt P47900); assay: Saturation binding of [3H]2MeSADP, Sf9 membranes
[6] = biological target: human P2Y1R Construct 2+A106^2.59W mutation (Homo sapiens, UniProt P47900, A106W/D320N/INS247MKKYTCTVCGYIYNPEDG/INS251GVNPGTDFKDIPDDWVCPLCGVGKDQFEEVE/L249P/S252E); assay: biochemical
[7] = biological target: human P2Y1R Construct 2+T103^2.56W mutation (Homo sapiens, UniProt P47900, D320N/INS247MKKYTCTVCGYIYNPEDG/INS251GVNPGTDFKDIPDDWVCPLCGVGKDQFEEVE/L249P/S252E/T103W); assay: biochemical
human P2Y1R WT [8] = biological target: T1, human P2Y1R WT; assay: Saturation binding of [3H]2MeSADP, COS-7 membranes
[9] = biological target: human P2Y1R Construct 2+A106^2.59F mutation (Homo sapiens, UniProt P47900, A106F/D320N/INS247MKKYTCTVCGYIYNPEDG/INS251GVNPGTDFKDIPDDWVCPLCGVGKDQFEEVE/L249P/S252E); assay: biochemical
[10] = biological target: human P2Y1R Construct 1+R195A mutation (Homo sapiens, UniProt P47900, D320N/INS247MKKYTCTVCGYIYNPEDG/INS251GVNPGTDFKDIPDDWVCPLCGVGKDQFEEVE/L249P/R195A/S252E); assay: biochemical
[11] = biological target: human P2Y1R WT+A106^2.59W mutation (Homo sapiens, UniProt P47900, A106W); assay: Saturation binding of [3H]2MeSADP, COS-7 membranes
[12] = biological target: human P2Y1R Construct 1+Y303^7.32F mutation (Homo sapiens, UniProt P47900, D320N/INS247MKKYTCTVCGYIYNPEDG/INS251GVNPGTDFKDIPDDWVCPLCGVGKDQFEEVE/L249P/S252E/Y303F); assay: biochemical
[13] = biological target: human P2Y1R Construct 1+A286^6.61W mutation (Homo sapiens, UniProt P47900, A286W/D320N/INS247MKKYTCTVCGYIYNPEDG/INS251GVNPGTDFKDIPDDWVCPLCGVGKDQFEEVE/L249P/S252E); assay: biochemical
human P2Y1R Construct 2 = human P2Y1R Construct 2 (UniProt P0ABE7+P47900, D320N/H124I/INS247MKKYTCTVCGYIYNPEDG/INS251GVNPGTDFKDIPDDWVCPLCGVGKDQFEEVE/L249P/M29W/S252E); assay: Saturation binding of [3H]2MeSADP, Sf9 membranes

Question: With CSc1nc(N)c2ncn([C@@H]3O[C@H](COP(=O)(O)OP(=O)(O)O)[C@@H](O)[C@H]3O)c2n1 [2MeSADP, 2-methylthio-adenosine 5′-diphosphate] as the molecule, how does the Kd (human P2Y1R Construct 1) read?
Answer: The Kd was 33.7 ± 12.2 nM.

Question: What about the Kd [1] of the same molecule?
Answer: The Kd was over 300 nM.

Question: And the Kd [2]?
Answer: The Kd was 41.9 ± 4.1 nM.

Question: And the Kd [3]?
Answer: Its Kd is 1.78 ± 0.16 nM.

Question: What about the Kd [4] of the same molecule?
Answer: Its Kd is 68.3 ± 10 nM.

Question: What about the Kd (human P2Y1R WT [5]) of the same molecule?
Answer: The Kd was 53.6 ± 6.1 nM.

Question: What about the Kd [6] of the same molecule?
Answer: Its Kd is 23.4 ± 5.8 nM.

Question: What about the Kd [7] of the same molecule?
Answer: Its Kd is 45 ± 11.6 nM.

Question: And the Kd (human P2Y1R WT [8])?
Answer: The Kd was 1.88 ± 0.59 nM.

Question: And the Kd [9]?
Answer: The Kd was 57.4 ± 21.8 nM.

Question: And the Kd [10]?
Answer: The Kd was 59.8 ± 11.6 nM.

Question: And the Kd [11]?
Answer: Its Kd is 1.96 ± 0.11 nM.

Question: And the Kd [12]?
Answer: The Kd was 41.9 ± 11 nM.

Question: What about the Kd [13] of the same molecule?
Answer: The Kd was 47.4 ± 10.5 nM.

Question: And the Kd (human P2Y1R Construct 2)?
Answer: The Kd was 36.7 ± 7.6 nM.
